Patent US5013743A, “Selective antibacterial agent against campytobacter” (Takeda Chemical Industries, Ltd., priority 1989, dated 1991)

Type: in vivo
Details: oral, mice, 200 mg/kg

Structure (SMILES): Cc1c(OCC(F)(F)F)ccnc1C[S+]([O-])c1nc2ccccc2[nH]1 (stereo not shown) [Compound 1]
- dead animals: no dead animals
